Read-outs that look alike come from different tables or passages of the source.
Legend:
[1] = biological target: GSK3α (GST-full length GSK3α) (Homo sapiens (Human), UniProt P49840); assay: GSK3α TR-FRET kinase assay; assay type: biochemical
[2] = biological target: GSK3b (GST-full length GSK3b) (Homo sapiens (Human), UniProt P49841); assay: GSK3b TR-FRET kinase assay; assay type: biochemical
[3] = read-out: GSK3-A TR-FRET BIOCHEMICAL (TR-FRET), IC50, 1 nM GSK3α, 4 μM ATP, 30 minute preincubation
[4] = read-out: GSK3-B TR-FRET BIOCHEMICAL (TR-FRET), IC50, 1 nM GSK3b, 2 μM ATP, 30 minute preincubation
[5] = read-out: GSK3-A TR-FRET BIOCHEMICAL (TR-FRET), GMean, IC50, 1 nM GSK3α, 4 μM ATP, 30 minute preincubation, geometric mean
[6] = read-out: GSK3-B TR-FRET BIOCHEMICAL (TR-FRET), GMean, IC50, 1 nM GSK3b, 2 μM ATP, 30 minute preincubation, geometric mean
[7] = read-out: GSK3-A (TR-FRET 1 mM ATP), GMean, IC50, 1 mM ATP, geometric mean
[8] = read-out: GSK3-B (TR-FRET 1 mM ATP), GMean, IC50, 1 mM ATP, geometric mean
[9] = read-out: GSK3-A TR-FRET BIOCHEMICAL (TR-FRET);, 1 nM GSK3α, 4 μM ATP, 30 minute preincubation, Table 16
[10] = read-out: GSK3-B TR-FRET BIOCHEMICAL (TR-FRET);, 1 nM GSK3b, 2 μM ATP, 30 minute preincubation, Table 16
[11] = read-out: GSK3-A TR-FRET BIOCHEMICAL (TR-FRET), IC50, 1 nM GSK3α, 4 μM ATP, 30 minute preincubation (Table 16)
[12] = read-out: GSK3-B TR-FRET BIOCHEMICAL (TR-FRET), IC50, 1 nM GSK3b, 2 μM ATP, 30 minute preincubation (Table 16)

By UniProt entry, the sequences of proteins in these tests, tags left out.
UniProt P49840, whole entry: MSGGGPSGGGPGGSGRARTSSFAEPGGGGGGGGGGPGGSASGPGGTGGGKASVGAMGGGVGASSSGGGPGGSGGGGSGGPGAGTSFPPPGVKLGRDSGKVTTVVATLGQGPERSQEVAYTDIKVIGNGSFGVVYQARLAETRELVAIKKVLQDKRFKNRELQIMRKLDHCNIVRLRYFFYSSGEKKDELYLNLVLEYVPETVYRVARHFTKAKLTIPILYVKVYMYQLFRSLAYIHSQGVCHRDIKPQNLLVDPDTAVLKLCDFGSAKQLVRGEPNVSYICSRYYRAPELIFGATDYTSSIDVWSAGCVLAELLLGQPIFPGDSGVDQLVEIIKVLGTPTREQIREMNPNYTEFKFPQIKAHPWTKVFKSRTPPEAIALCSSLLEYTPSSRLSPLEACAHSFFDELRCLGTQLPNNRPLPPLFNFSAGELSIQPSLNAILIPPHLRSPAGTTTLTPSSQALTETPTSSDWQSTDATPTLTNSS
UniProt P49841, whole entry: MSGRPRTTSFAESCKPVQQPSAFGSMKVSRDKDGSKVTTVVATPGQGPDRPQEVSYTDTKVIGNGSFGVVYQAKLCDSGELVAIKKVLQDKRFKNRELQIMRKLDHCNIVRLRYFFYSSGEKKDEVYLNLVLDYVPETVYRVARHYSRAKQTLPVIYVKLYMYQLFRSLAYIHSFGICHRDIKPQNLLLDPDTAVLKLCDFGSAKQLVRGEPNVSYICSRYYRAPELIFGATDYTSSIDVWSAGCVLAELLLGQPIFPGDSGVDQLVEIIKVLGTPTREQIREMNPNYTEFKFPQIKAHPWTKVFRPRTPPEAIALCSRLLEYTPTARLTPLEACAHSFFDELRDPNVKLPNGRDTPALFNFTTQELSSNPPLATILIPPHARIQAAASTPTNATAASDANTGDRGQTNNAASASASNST

## CC1(C)CC(=O)C2=C(C1)Nc1n[nH]cc1[C@@]21COC2(CN(C(=O)C(C)(F)F)C2)C1
[1]; [3]
  IC50: < 100 nM
[2]; [4]
  IC50: 100 to 1000 nM

## CC[C@@]1(c2cccc(-c3c4c(cn3C)CCCC4)c2)C2=C(CC(C)(C)NC2=O)Nc2n[nH]cc21
[1]; [5]
  IC50: < 100 nM
[2]; [6]
  IC50: 100 to 1000 nM

## CCC1(c2cccc(N(C)c3ncccn3)c2)C2=C(CC(C)(C)NC2=O)Nc2n[nH]c(F)c21 (stereo not drawn)
[1]; [7]
  IC50: 100 to 1000 nM
[1]; [5]
  IC50: < 100 nM
[2]; [8]
  IC50: 1000 to 5000 nM
[2]; [6]
  IC50: < 100 nM

## CCC1(c2cccc(C(F)(F)F)c2)C2=C(CCN(c3ccccc3)C2=O)Nc2n[nH]cc21 (stereo not drawn) [Compound 929474]
[1]; [3]
  IC50: < 100 nM
[2]; [4]
  IC50: 100 to 1000 nM

## CCC1(c2cccc(-c3ccncc3C)c2)C2=C(CC(C)(C)NC2=O)Nc2n[nH]c(C)c21 (stereo not drawn)
[1]; [3]
  IC50: < 100 nM
[2]; [4]
  IC50: < 100 nM

## CCC1(c2cccc(N3CCCC3)c2)C2=C(CC(C)(C)NC2=O)Nc2n[nH]cc21 (stereo not drawn)
[1]; [3]
  IC50: 100 to 1000 nM
[2]; [4]
  IC50: 1000 to 5000 nM

## CCC1(c2cccc(-c3ccncc3O)c2)C2=C(CC(C)(C)CC2=O)Nc2n[nH]c(C)c21 (stereo not drawn)
[1]; [9]
  IC50: < 100 nM
[2]; [10]
  IC50: < 100 nM

## CC[C@@]1(c2cccc(Br)c2)C2=C(C[C@H](C)CC2=O)Nc2n[nH]cc21
[1]; [5]
  IC50: > 5000 nM
[2]; [6]
  IC50: > 5000 nM

## CC[C@@]1(c2cccc(-c3ccnc4cc(F)c(F)cc34)c2)C2=C(CC(C)(C)NC2=O)Nc2n[nH]cc21
[1]; [5]
  IC50: 1000 to 5000 nM
[2]; [6]
  IC50: > 5000 nM

## CC[C@]1(c2cccc(N(C)c3ncccn3)c2)C2=C(CC(C)(C)CC2=O)Nc2n[nH]cc21
[1]; [7]
  IC50: < 100 nM
[1]; [11]
  IC50: < 100 nM
[2]; [8]
  IC50: 100 to 1000 nM
[2]; [12]
  IC50: < 100 nM

## CC[C@]1(c2cccc(N(C)c3cccc(C)n3)c2)C2=C(CC(C)(C)CC2=O)Nc2n[nH]cc21
[1]; [9]
  IC50: < 100 nM
[2]; [10]
  IC50: 100 to 1000 nM

## CC[C@]1(c2cccc(-c3c(C)cncc3C)c2)C2=C(CC(C)(C)NC2=O)Nc2n[nH]cc21
[1]; [7]
  IC50: 100 to 1000 nM
[1]; [5]
  IC50: < 100 nM
[2]; [8]
  IC50: 1000 to 5000 nM
[2]; [6]
  IC50: < 100 nM

## CC[C@@]1(c2cccc(N(C)c3ccncc3)c2)C2=C(CC(C)(C)CC2=O)Nc2n[nH]cc21
[1]; [5]
  IC50: < 100 nM
[2]; [6]
  IC50: 100 to 1000 nM

## CC[C@@]1(c2cccc(-c3ccncc3C)c2)C2=C(CC(C)(C)CC2=O)Nc2n[nH]c(C(F)(F)F)c21
[1]; [9]
  IC50: < 100 nM
[2]; [10]
  IC50: 100 to 1000 nM

## CC[C@]1(c2cccc(-c3ccncc3C)c2)C2=C(CC(C)(C)CC2=O)Nc2n[nH]cc21 [Compound 913047]
[1]; [9]
  IC50: 100 to 1000 nM
[2]; [10]
  IC50: 1000 to 5000 nM

## CC[C@@]1(c2cccc([C@H]3CCOC3)c2)C2=C(CC(C)(C)CC2=O)Nc2n[nH]cc21
[1]; [11]
  IC50: < 100 nM
[2]; [12]
  IC50: < 100 nM

## CCC1(c2cccc(-c3ccncc3F)c2)C2=C(CC(C)(C)NC2=O)Nc2n[nH]c(C)c21 (stereo not drawn)
[1]; [3]
  IC50: < 100 nM
[2]; [4]
  IC50: < 100 nM

## CC[C@@]1(c2cccc(-c3ccn(C)n3)c2)C2=C(CC(C)(C)CC2=O)Nc2n[nH]c(C)c21
[1]; [7]
  IC50: 100 to 1000 nM
[1]; [11]
  IC50: < 100 nM
[2]; [8]
  IC50: 100 to 1000 nM
[2]; [12]
  IC50: < 100 nM

## CC[C@@]1(c2cccc(-c3cnn4c3CC(C)(C)CC4)c2)C2=C(CC(C)(C)NC2=O)Nc2n[nH]cc21
[1]; [11]
  IC50: 1000 to 5000 nM
[2]; [12]
  IC50: > 5000 nM

## CC(C)(C)Cc1[nH]nc2c1C1(CCc3cccc(F)c31)C1=C(CC(C)(C)CC1=O)N2 (stereo not drawn) [Compound 801351]
[1]; [5]
  IC50: 100 to 1000 nM
[2]; [6]
  IC50: 100 to 1000 nM

## CC[C@@]1(c2cccc(-c3ccncc3C)c2)C2=C(C[C@]3(CCOC3)NC2=O)Nc2n[nH]cc21
[1]; [5]
  IC50: 1000 to 5000 nM
[2]; [6]
  IC50: > 5000 nM

## CC1(C)CC(=O)C2=C(C1)Nc1n[nH]cc1[C@@]21COC2(CN(C(=O)[C@@H]3CC3(F)F)C2)C1
[1]; [3]
  IC50: 100 to 1000 nM
[2]; [4]
  IC50: 100 to 1000 nM

## CC[C@]1(c2cccc(-c3ccncc3C3CC3)c2)C2=C(CC(C)(C)NC2=O)Nc2n[nH]cc21
[1]; [7]
  IC50: 100 to 1000 nM
[1]; [11]
  IC50: < 100 nM
[2]; [8]
  IC50: 1000 to 5000 nM
[2]; [12]
  IC50: < 100 nM

## CC[C@@]1(c2cccc(-c3ccncc3)c2)C2=C(C[C@H](C)CC2=O)Nc2n[nH]cc21
[1]; [5]
  IC50: < 100 nM
[2]; [6]
  IC50: < 100 nM

## CC[C@]1(c2cccc(-c3ccnc4c3cnn4C)c2)C2=C(CC(C)(C)NC2=O)Nc2n[nH]cc21
[1]; [11]
  IC50: < 100 nM
[2]; [12]
  IC50: 100 to 1000 nM

## CC[C@@]1(c2cccc(-c3ccnc(C)c3)c2)C2=C(C[C@H](C)NC2=O)Nc2n[nH]cc21
[1]; [3]
  IC50: 1000 to 5000 nM
[2]; [4]
  IC50: > 5000 nM

## CC[C@@]1(c2cccc(-c3cnn4cc(F)cc(F)c34)c2)C2=C(CC(C)(C)NC2=O)Nc2n[nH]cc21
[1]; [11]
  IC50: 1000 to 5000 nM
[2]; [12]
  IC50: > 5000 nM

## CC[C@@]1(c2cccc(-c3cnc4n3CCCC4)c2)C2=C(CC(C)(C)CC2=O)Nc2n[nH]cc21
[1]; [9]
  IC50: 1000 to 5000 nM
[2]; [10]
  IC50: > 5000 nM
